Results on 1 molecule are retold here after patent EP1143955B1, “A COMBINATION OF FBPase INHIBITORS AND INSULIN SENSITIZERS FOR THE TREATMENT OF DIABETES” (priority 1998, dated 2000).

The structures appear in SMILES notation.

The test system of the assay is ZDF rat. Briefly: Combination treatment with Rosiglitazone and Compound G in the ZDF rat - blood glucose (Example R). It is filed as in vivo, Zucker Diabetic Fatty (ZDF) rat. To be noted: Rosiglitazone 0.0045%, Compound G 0.2% food admixture, 25 days; rats with blood glucose >600 mg/dl.

Regarding `CN(CCOc1ccc(CC2SC(=O)NC2=O)cc1)c1ccccn1` (stereo not shown) [Rosiglitazone], the “Change in Blood glucose, mg/dl (day 25 vs day 0)” value was -107 ± 78 mg/dL.
